The values below are quoted from earlier work in patent US20230076411A1, “LASSO PEPTIDES FOR TREATMENT OF CANCER” (Lassogen, Inc., priority 2020, published 2023).

By UniProt entry, the sequences of proteins in these tests, tags left out. Residues count along the entry.
UniProt P25101, 21-427: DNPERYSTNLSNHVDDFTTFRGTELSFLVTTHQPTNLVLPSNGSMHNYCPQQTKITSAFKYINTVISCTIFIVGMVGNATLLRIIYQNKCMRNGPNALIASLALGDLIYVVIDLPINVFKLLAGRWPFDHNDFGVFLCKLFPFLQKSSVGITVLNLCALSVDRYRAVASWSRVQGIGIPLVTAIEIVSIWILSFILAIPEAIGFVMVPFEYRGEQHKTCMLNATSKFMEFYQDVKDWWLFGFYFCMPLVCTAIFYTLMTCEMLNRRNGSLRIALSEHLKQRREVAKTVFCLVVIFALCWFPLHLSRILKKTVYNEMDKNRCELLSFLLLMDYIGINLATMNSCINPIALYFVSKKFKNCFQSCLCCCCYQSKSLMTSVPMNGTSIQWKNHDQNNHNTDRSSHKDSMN

For this data set, the target named is ETAR receptors (Homo sapiens, UniProt P25101). Conditions: physiological concentrations; cited from earlier work.

As a reminder, the Kd is a measure of binding affinity in units of concentration. Take “ET-3: cognate endothelin ligand, 21-amino acid peptide”: the Kd was about 6.5 nM.
